## Yeast mating assay 2: variants of the scFv Ab-95

Target: peptide PDVDLGDISGINAS, taken from heptad repeat 2 (HR2) of SARS-CoV-2 spike.

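Library AAYL52 holds single substitutions and randomly drawn double and triple substitutions in the CDRs. In AlphaSeq, yeast of one mating type display the scFv and yeast of the other type display the target. The frequency of each diploid, read from paired DNA barcodes, reflects how well the two displayed proteins bind. The ratio of observed to expected reads was calibrated, replicate by replicate, on BCL2-family standards whose Kd was known from biolayer interferometry. Each pool was mated in three replicate cultures.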

Each scFv is VH, the linker GGGGSGGGGSGGGGS, VL, as in the parent Ab-95, and differs from it in the CDRs of the light chain only.
VH: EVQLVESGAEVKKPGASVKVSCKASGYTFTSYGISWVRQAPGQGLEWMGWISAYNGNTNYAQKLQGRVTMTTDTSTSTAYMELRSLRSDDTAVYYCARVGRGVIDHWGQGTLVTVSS
VL: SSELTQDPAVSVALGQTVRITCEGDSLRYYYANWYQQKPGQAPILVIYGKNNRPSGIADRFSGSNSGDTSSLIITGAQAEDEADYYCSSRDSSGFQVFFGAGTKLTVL

Sequences are complete VL domains.
All variants listed here change S93 of the VL, counted from its first residue.
Affinities are written as log10 Kd with Kd in nM; a lower number is a better binder.
Replicates are averaged; those with no signal do not enter the mean.
An entry "no signal" has no value in the source: the pair was not observed among the diploids in any replicate. This suggests poor binding but is not conclusive.
The list is sorted by this average, lowest first, undetected variants last.
In this assay the parent's reference entry averaged 2.31; its copy inside this library read 2.25.
Nonspecific signal, from three strains lacking the peptide, appeared in 28% of pairings of library AAYL52, centred on 3.91 (5% of these signals below 2.90); values are not corrected for it.

With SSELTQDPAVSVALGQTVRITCEGDSLRYYLANWYQQKPGQAPILVIYGKNNRPSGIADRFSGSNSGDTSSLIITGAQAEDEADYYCSSRDSTGFQVEFGAGTKLTVL the result was 2.25 (3 of 3 replicates). With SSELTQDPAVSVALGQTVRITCEGDSLRYYYSNWYQQKPGQAPILVIYGKNNRPSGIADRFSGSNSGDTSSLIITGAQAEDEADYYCSSRDSDGFQVFFGAGTKLTVL the result was 2.32 (2 of 3 replicates). The variant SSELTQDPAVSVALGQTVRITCNGDSLRYYYANWYQQKPGQAPILVIYGKNNRPSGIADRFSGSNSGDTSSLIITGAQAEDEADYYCSSRDSPGFQVDFGAGTKLTVL gave 2.36 (2 of 3 replicates). For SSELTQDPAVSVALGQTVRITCEGDSLRYYYANWYQQKPGQAPILVIYGKNNRPSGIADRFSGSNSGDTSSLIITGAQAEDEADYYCSSRDSKEFQVFFGAGTKLTVL, the assay gave 2.48 (3 of 3 replicates). With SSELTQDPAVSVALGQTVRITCEGDSLRYYYANWYQQKPGQAPILVIYGNNNRPSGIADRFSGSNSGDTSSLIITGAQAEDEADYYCSSRQSKGFQVFFGAGTKLTVL the result was 2.67 (3 of 3 replicates). The variant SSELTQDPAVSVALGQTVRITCEGDILRYNYANWYQQKPGQAPILVIYGKNNRPSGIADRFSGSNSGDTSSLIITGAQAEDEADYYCSSRDSCGFQVFFGAGTKLTVL gave 2.85 (3 of 3 replicates). For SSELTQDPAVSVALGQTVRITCEGDSLRYYYANWYQQKPGQAPILVIYDKNNRPSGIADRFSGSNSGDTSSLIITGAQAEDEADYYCSSRDSYGFHVFFGAGTKLTVL, the assay gave 2.87 (3 of 3 replicates). With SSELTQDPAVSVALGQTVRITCEGDSLRYYYANWYQQKPGQAPILVIYGKNNRYSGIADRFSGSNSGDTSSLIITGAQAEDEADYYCSSRDSYGFQQFFGAGTKLTVL the result was 2.90 (2 of 3 replicates). For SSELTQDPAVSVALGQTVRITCEGRSLRYYYANWYQQKPGQAPILVIYGKNNRMSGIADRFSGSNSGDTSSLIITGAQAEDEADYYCSSRDSEGFQVFFGAGTKLTVL, the assay gave 2.91 (3 of 3 replicates).

The variant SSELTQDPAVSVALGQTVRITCEGDSMRYYYANWYQQKPGQAPILVIYGKNNRASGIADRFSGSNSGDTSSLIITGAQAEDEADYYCSSRDSRGFQVFFGAGTKLTVL gave 3.04 (3 of 3 replicates). The variant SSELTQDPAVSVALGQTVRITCEGDSLRYYYANWYQQKPGQAPILVIYSVNNRPSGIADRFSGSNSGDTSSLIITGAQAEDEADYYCSSRDSGGFQVFFGAGTKLTVL gave 3.25 (2 of 3 replicates). The variant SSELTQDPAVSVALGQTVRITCEGDSLRYYYANWYQQKPGQAPILVIYGKNARVSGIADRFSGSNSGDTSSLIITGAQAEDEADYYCSSRDSMGFQVFFGAGTKLTVL showed 3.25 (3 of 3 replicates). The variant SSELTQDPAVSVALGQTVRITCEGDQLRYYYANWYQQKPGQAPILVIYGKNNRPSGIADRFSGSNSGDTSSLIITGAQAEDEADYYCSSRDSKGFQMFFGAGTKLTVL showed 3.34 (2 of 3 replicates). For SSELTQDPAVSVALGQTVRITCEGDSLRYYYDNWYQQKPGQAPILVIYGTNNRPSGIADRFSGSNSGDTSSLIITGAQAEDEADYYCSSRDSFGFQVFFGAGTKLTVL, the assay gave 3.47 (1 of 3 replicates). The variant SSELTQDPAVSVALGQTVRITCEGDSLRYYYANWYQQKPGQAPILVIYGPNNMPSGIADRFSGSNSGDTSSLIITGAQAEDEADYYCSSRDSEGFQVFFGAGTKLTVL showed 3.55 (2 of 3 replicates). With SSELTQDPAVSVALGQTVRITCEGDSLRYYYANWYQQKPGQAPILVIYGKNNRWSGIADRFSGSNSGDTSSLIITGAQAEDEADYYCSSRDSQGFQVFFGAGTKLTVL the result was 3.58 (2 of 3 replicates). For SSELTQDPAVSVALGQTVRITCEGDSLSYYYANWYQQKPGQAPILVIYNKNNRPSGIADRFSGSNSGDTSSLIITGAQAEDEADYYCSSRDSTGFQVFFGAGTKLTVL, the assay gave 3.61 (2 of 3 replicates). The variant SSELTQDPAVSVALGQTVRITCEGDSLRYYYANWYQQKPGQAPILVIYGKPNRPSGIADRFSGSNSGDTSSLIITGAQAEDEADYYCSSFDSYGFQVFFGAGTKLTVL gave 3.87 (2 of 3 replicates).

The variant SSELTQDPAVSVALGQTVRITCEGDSLRYYYANWYQQKPGQAPILVIYGKNNRPSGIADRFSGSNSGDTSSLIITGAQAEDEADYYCWNRDSRGFQVFFGAGTKLTVL showed 3.89 (1 of 3 replicates). With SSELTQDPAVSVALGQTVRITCEGDSLRYYYANWYQQKPGQAPILVIYGKNNRPTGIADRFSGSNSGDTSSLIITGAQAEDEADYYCSSRDSFMFQVFFGAGTKLTVL the result was 4.38 (3 of 3 replicates). With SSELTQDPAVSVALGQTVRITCEGDSLRYYYANWYQQKPGQAPILVIYCKNNYPSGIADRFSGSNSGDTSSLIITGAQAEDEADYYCSSRDSFGFQVFFGAGTKLTVL the result was 4.47 (2 of 3 replicates). The variant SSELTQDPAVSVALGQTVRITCEGDSLRYYYARWYQQKPGQAPILVIYGKTNRPSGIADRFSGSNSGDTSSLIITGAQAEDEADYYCSSRDSWGFQVFFGAGTKLTVL showed 4.66 (3 of 3 replicates). For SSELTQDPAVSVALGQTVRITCCGDSLAYYYANWYQQKPGQAPILVIYGKNNRPSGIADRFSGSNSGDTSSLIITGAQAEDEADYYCSSRDSTGFQVFFGAGTKLTVL, the assay gave 4.74 (2 of 3 replicates). The variant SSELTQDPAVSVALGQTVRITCEGDCLRYYYANWYQQKPGQAPILVIYGKNNRPSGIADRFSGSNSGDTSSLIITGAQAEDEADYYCSSTDSYGFQVFFGAGTKLTVL showed no signal (0 of 3 replicates). The variant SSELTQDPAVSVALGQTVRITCEGDSLRYYYKNWYQQKPGQAPILVIYGKNNRPSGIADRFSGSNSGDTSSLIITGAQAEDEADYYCSSRDKAGFQVFFGAGTKLTVL gave no signal (0 of 3 replicates). With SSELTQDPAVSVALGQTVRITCEGDSLRYYYENWYQQKPGQAPILVIYGKNNRPSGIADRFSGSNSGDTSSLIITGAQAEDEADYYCHSRDSRGFQVFFGAGTKLTVL the result was no signal (0 of 3 replicates).

Source: Engelhart et al. 2022 (doi:10.1038/s41597-022-01779-4), MIT Lincoln Laboratory and A-Alpha Bio; data file from the FLAb repository.